{
  "source": "patent US20260169011A1",
  "about": "“METHODS AND COMPOSITIONS FOR PROVIDING CUSTOMIZED NUTRITIONAL SUPPLEMENTS” (Vibrant Holdings LLC, priority 2023, published 2026)",
  "origin": "cited, not measured here",
  "conditions": "upper tolerable limit; cited from earlier work",
  "data": [
    {"substance": "Folate (L-5-methyltetrahydrofolate)", "values": [
      {"measurement": "UTL", "result": "1,000 mcg/day"}
    ]}
  ]
}
